The values below come from PubChem BioAssay AID1259400 (National Center for Advancing Translational Sciences (NCATS), 2018).

Protein sequences, listed by entry. Tags and fused reporters are not part of them.
UniProt Q9HBX9, whole entry: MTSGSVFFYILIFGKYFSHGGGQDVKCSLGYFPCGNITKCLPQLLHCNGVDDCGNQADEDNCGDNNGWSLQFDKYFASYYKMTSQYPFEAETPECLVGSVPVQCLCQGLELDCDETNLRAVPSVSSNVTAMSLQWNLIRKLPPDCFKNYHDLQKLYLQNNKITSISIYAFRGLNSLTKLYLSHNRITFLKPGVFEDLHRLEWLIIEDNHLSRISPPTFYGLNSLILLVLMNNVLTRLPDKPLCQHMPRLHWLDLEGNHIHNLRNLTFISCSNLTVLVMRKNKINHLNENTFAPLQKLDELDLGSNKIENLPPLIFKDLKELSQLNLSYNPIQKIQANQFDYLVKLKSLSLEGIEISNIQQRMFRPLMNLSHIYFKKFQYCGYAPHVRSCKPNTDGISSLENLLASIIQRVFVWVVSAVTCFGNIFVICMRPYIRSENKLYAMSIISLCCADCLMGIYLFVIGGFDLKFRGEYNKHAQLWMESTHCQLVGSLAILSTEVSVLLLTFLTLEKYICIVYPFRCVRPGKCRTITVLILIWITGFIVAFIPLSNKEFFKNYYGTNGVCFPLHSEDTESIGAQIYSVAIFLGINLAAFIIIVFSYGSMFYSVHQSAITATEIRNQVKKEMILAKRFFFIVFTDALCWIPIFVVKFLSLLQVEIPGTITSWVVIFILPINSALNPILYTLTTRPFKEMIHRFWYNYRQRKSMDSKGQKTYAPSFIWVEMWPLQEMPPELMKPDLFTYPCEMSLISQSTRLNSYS

Where “and” joins values, the source holds several entries; their conditions need not be identical. Equal entries are not always repeated. This is a selection; strong and weak results do not stand in their true shares. Some results for these compounds are left out of this collection, so the calls shown say nothing about other tests. Calls of active or inactive are those of the source.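 Rule for the calls: active = activity change of -60% or lower, but not beyond a set lower limit; inconclusive = change between -60% and -40%, or beyond the set limit; inactive = change above -40%.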

In this assay the target is Relaxin receptor 1 (Homo sapiens) (UniProt Q9HBX9). The assay can be described thus: qHTS Assay for Antagonists of the Relaxin Receptor RXFP1. Conditions: HEK293-RXFP1, relaxin-stimulated cAMP HTRF, 30 min; at 57.5 µM; hits give low values. An excerpt:
The relaxin hormone is involved in the variety of biological functions in normal tissues and diseases. The role of relaxin is well-established in female reproduction and parturition, mammary gland and endometrial development, maintenance of myometrial quiescence during pregnancy. Relaxin signaling through its G protein-coupled receptor (GPCR) RXFP1 results in ECM remodeling through regulation of collagen deposition, cell invasiveness, proliferation and overall tissue homeostasis. […] Recombinant human relaxin (rhRlx) is currently being tested in clinical trials as a protective agent in congestive heart failure, in treating severe preeclampsia, and as an anti-fibrotic agent in various organs. […] Upon relaxin binding RXFP1 activation leads to the activation of adenylate cyclase (AC) via G?s. cAMP will activate PKA, which phosphorylates many signaling proteins. Thus, detection of cAMP increase is an easy and reliable indication of relaxin receptor activation. To screen for antagonists of the relaxin receptor, a HEK293T cell line stably transfected with RXFP1 was used. RXFP1 activation by relaxin in presence of various concentrations of tested compounds was assayed by changes in cAMP levels as detected with a time-resolved fluorescence energy transfer (TR-FRET) cAMP detection kit.
For the primary screening, we used HTRF(R) (Homogenous Time-Resolved Fluorescence) cAMP HiRange assay (Cisbio Bioassays, 62AM6PEJ). Presence of cAMP in the cell lysate disrupts binding between the Cryptate-labeled anti-cAMP and d2-labeled cAMP pair, leading to a decrease in TR-FRET signal. The libraries were screened at two doses (57microM and 11microM), followed by a confirmation of the hits at 7-point serial dilution in the range of final concentrations [57microM - 78nM]. Data were normalized to the controls for basal activity (buffer only) and 100% activity (5 nM porcine relaxin). The EC50 values were determined from concentration-response data modeled with the standard Hill equation. NCGC Assay Protocol Summary: HiHEK (Hawaiian HEK293 LGR7 stably transfected with human RXFP1) were grown in the following media: DMEM+10%FBS+Pen/Strep + Geneticin (1mg/ml). For the assay, the cells were seeded in DMEM+Pen/Strep (with no serum & selective antibiotics) at 2,100 cells/ 3microl/well with MultiDrop Combi dispenser (Thermo Scientific, Logan, UT) onto white tissue culture treated solid bottom1536-well plates (Greiner #789173-F) and allowed to attach/recover overnight at 37 degrees C, 5% CO2. Next, 23nl/well of compound solutions in DMSO were transferred into wells with a pintool (Kalypsis, San Diego, CA). […] EC80 (relaxin at 50pM final concentration) was dispensed to the rest of the plate except columns 1&2 which were used as a negative control (EC0, buffer only), 1microl/well also. The cells were stimulated by relaxin in the presence of compounds for 30 minutes at 37 degrees C, 5% CO2. The detection reagents were prepared individually by dilution in Lysis buffer (supplied with the assay kit) just prior to dispensing. 1microl/well of cAMP-d2 and 1microl/well anti-cAMP-Eu3+-Cryptate antibodies were added simultaneously with BioRAPTR FRDtrade mark Workstation (Beckman Coulter). The plates were incubated at ambient temperature for 30 minutes and, then, FRET signal was read on Envision plate reader (PerkinElmer, Waltham, MA), at wavelengths 340nm (excitation), 615nm & 665nm (emission of donor and acceptor channels respectively).
`O=C(NCC1(N2CCCCC2)CCCCC1)c1cc([N+](=O)[O-])ccc1Cl`: the activity change, negative = inhibition is inactive: -6.29%. Then `CN1[C@@H]2CC[C@H]1CC(OC(=O)C(O)(c1ccccc1)c1ccccc1)C2` (stereo not given in full), with inactive: 1%; and `COc1cc(SC)ccc1C(=O)NCC1(N(C)C)CCCCC1`, with inactive: -1.71%.

On to `CCN(CC)CC(C)C(C)OC(=O)C(O)(c1ccccc1)c1ccccc1` (stereo not given), for which the activity change, negative = inhibition is inactive: -2.54%. Then `CC(C)N1C(=O)CC2(CCN(CCOC(=O)C(O)(c3ccccc3)c3ccccc3)CC2)C1=O`, with inactive: 3.18%; and `Cc1ccc(C(=O)NCC2(N3CCCCC3)CCCCC2)cc1`, with inactive: 1.93%; and `CN(C)c1ccc(C(=O)NCC2(N(C)C)CCCCC2)cc1`, with inactive: -1.98%. Turning to `CN(C)C1CCCC1OC(=O)C(O)(c1ccccc1)c1ccccc1` (stereo not given), the activity change, negative = inhibition was inactive: -5.74%.

For `Cc1ccccc1C(=O)NCC1(N2CCCCC2)CCCCC1`, the activity change, negative = inhibition was inactive: 7.99%. For the compound `O=C(NCC1(N2CCCCC2)CCCCC1)c1cc(F)c(F)cc1Cl`, the activity change, negative = inhibition was inactive: 13%. With `C=CCN1CCN(CCOC(=O)C(O)(c2ccccc2)c2ccccc2)CC1`, the activity change, negative = inhibition was inactive: -11.4%. Then `COc1ccc(C(=O)NCC2(N(C)C)CCCCC2)cc1`, with inactive: 2.86%; and `O=C(NCC1(N2CCCCC2)CCCCC1)c1cccc(Br)c1`, with inactive: -7.99%. For `CCN1CCCC(OC(=O)C2(O)c3ccccc3C=Cc3ccccc32)C1` (stereo not given) the value was inactive: -14.8%; for `Cc1cc(C(=O)NCC2(N3CCCCC3)CCCCC2)ccc1[N+](=O)[O-]`, inactive: -23%. Then `CN(C)C1(CNC(=O)c2ccc(Br)cc2)CCCCC1`, with inactive: 6.25%; and `COc1cc(C(=O)NCC2(N(C)C)CCCCC2)c([N+](=O)[O-])cc1OC`, with inactive: 11%.

For the compound `COc1ccc(Cl)cc1C(=O)NCC1(N(C)C)CCCCC1`, the activity change, negative = inhibition is inactive: -9.62%. For `COc1cccc(C(=O)NCC2(N3CCCCC3)CCCCC2)c1` the value was inactive: 5.4%. For `COc1ccc(C(=O)NCC2(N(C)C)CCCCC2)cc1Cl` the value was inactive: -9.26%; for `O=C(NCC1(N2CCCCC2)CCCCC1)c1cccc(Cl)c1`, inactive: -15.3%. For the compound `O=C(OC1CN2CCC1CC2)C(CO)(c1ccccc1)c1ccccc1` (stereo not given), the activity change, negative = inhibition was inactive: -1.65%. For `CC(C)COc1ccc(C(=O)NCC2(N(C)C)CCCCC2)cc1` the value was inactive: -17.7%; for `C=C(C)C#CC(O)(C(=O)OC1CCN(C)CC1)c1ccccc1` (stereo not given), inactive: 13.6%. For `COc1ccc(Br)c(C(=O)NCC2(N3CCCCC3)CCCCC2)c1` the value was inactive: -2.09%. Then `COc1cc(C(=O)NCC2(N(C)C)CCCCC2)cc(OC)c1OC`, with inactive: -2.54%; and `Cc1cccc(C(=O)NCC2(N(C)C)CCCCC2)c1`, with inactive: 2.76%. In the case of `O=C(OCCN1CCCC1)C(O)(c1ccccc1)c1ccccc1`, the activity change, negative = inhibition is inactive: -9.63%. Then `CC(C)Oc1ccc(C(=O)NCC2(N(C)C)CCCCC2)cc1`, with inactive: -6.33% and inactive: 3.72%; and `CN(C)c1cccc(C(=O)NCC2(N(C)C)CCCCC2)c1`, with inactive: -6.84%.
